Measured values published in PubChem BioAssay AID1496 (Sanford-Burnham Center for Chemical Genomics, 2009).
The list shows a part of the results, in another mix than the full data. Some salts or complexes appear as unconnected parts, following the source record. Calls of active or inactive are those of the source.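 Rule for the calls: active = inhibition over about 50% at 20 µM in the single-dose screen (limit read from the data); inactive = the rest.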

Sequences of proteins named here, by UniProt entry; tags and fusion partners are left off.
UniProt Q01196, whole entry, looked up: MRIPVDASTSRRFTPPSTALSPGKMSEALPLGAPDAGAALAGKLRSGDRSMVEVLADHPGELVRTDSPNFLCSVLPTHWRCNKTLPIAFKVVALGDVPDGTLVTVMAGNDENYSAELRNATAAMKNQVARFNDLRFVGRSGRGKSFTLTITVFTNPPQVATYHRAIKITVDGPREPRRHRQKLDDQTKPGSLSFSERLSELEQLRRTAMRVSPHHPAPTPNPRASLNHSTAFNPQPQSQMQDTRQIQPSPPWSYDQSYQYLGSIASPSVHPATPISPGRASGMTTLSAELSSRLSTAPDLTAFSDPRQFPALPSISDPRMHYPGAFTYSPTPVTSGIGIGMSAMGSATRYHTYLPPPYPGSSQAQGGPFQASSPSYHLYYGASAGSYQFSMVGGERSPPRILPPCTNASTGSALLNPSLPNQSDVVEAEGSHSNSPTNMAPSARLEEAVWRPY
UniProt Q13951, whole entry, looked up: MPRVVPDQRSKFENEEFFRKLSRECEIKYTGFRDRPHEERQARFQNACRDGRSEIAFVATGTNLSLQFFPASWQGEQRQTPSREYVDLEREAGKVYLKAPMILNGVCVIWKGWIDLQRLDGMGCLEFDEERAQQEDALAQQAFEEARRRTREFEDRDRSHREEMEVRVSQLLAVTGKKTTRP

target: Runt-related transcription factor 1 (Homo sapiens) + Core-binding factor subunit beta (Homo sapiens) (UniProt Q01196+Q13951); assay: inhibitors of RUNX1 Runt–CBFb binding, primary screen, biochemical, FRET, Cerulean-Runt, Venus-CBFb, uHTS (AID 1496); conditions: Cerulean-Runt/Venus-CBFb FRET ratio 530/480, 1 h; at 20 µM; stronger effect = higher value;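 note: 0% = DMSO wells and 100% = excess unlabeled CBFb competitor control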

With `CP(=O)(Nc1cccc(Br)c1)Oc1ccccc1` (configuration not stated) as the molecule, how does the inhibition read?
Its inhibition is inactive: -0.1%.

How did the inhibition turn out when `Cc1cc(C)cc(OP(C)(=O)Nc2ccccn2)c1` (configuration not stated) was run?
The inhibition was inactive: -0.9%.

With `Cc1ccc(C)c(NP(C)(=O)Oc2ccccc2)c1` (configuration not stated) as the molecule, how does the inhibition read?
The inhibition was inactive: -1.3%.

Which inhibition does the source give for `COc1ccccc1OP(C)(=O)Nc1cccc(Br)c1` (configuration not stated) here?
The inhibition was inactive: 0%.

Which inhibition does the source give for `Cc1cc(C)cc(OP(C)(=O)Nc2ccc(C)cc2C)c1` (configuration not stated) here?
Its inhibition is inactive: 1.4%.

With `CCOC(=O)c1ccc(NP(C)(=O)Oc2cc(C)cc(C)c2)cc1` (configuration not stated) as the molecule, how does the inhibition read?
Its inhibition is inactive: -4.4%.

With `CC1=NCCc2c1[nH]c1ccccc21.O=[N+]([O-])c1cc([N+](=O)[O-])c(O)c([N+](=O)[O-])c1` as the molecule, how does the inhibition read?
Its inhibition is inactive: -1.9%.

How did the inhibition turn out when `O=C(O)c1cccc(Nc2c([N+](=O)[O-])cc([N+](=O)[O-])cc2[N+](=O)[O-])c1` was run?
The inhibition was inactive: -0.7%.

`COc1ccccc1OP(C)(=O)Nc1c(C)cccc1C` (configuration not stated) was tested. Which inhibition did it give?
The inhibition was inactive: -32.9%.

`CN1CCCCC1COC(=O)C1(O)c2ccccc2CCc2ccccc21` (configuration not stated) was tested. Which inhibition did it give?
Its inhibition is inactive: -0.9%.

For `CP(=O)(Nc1ccc(SC(F)(F)F)cc1)Oc1ccccc1` (configuration not stated), which inhibition is on record?
The inhibition was inactive: -2.7%.

With `CCCOc1ccc(NP(C)(=O)Oc2ccc(Cl)cc2)cc1` (configuration not stated) as the molecule, how does the inhibition read?
The inhibition was inactive: -4.7%.

With `O=[N+]([O-])c1cc([N+](=O)[O-])c(Nc2nnnn2CCO)c([N+](=O)[O-])c1` as the molecule, how does the inhibition read?
The inhibition was inactive: -4.4%.

Which inhibition does the source give for `CCOC(=O)C(CC)C1=NC(C)(C)Cc2ccccc21.O=[N+]([O-])c1cc([N+](=O)[O-])c(O)c([N+](=O)[O-])c1` (configuration not stated) here?
The inhibition was inactive: -1.8%.

For `Cc1nc2ccc3ccccc3c2s1.O=[N+]([O-])c1cc([N+](=O)[O-])c(O)c([N+](=O)[O-])c1`, which inhibition is on record?
Its inhibition is inactive: 1.2%.

How did the inhibition turn out when `O=[N+]([O-])c1cc([N+](=O)[O-])c(-n2nnc3ccccc32)c([N+](=O)[O-])c1` was run?
The inhibition was inactive: 0.9%.

How did the inhibition turn out when `CCOP(C)(=S)SCC(=O)NC(C)C(=O)O` (configuration not stated) was run?
The inhibition was inactive: 0.8%.

Which inhibition does the source give for `CCOC(=O)c1ccc(NP(C)(=O)Oc2ccc(OC)cc2)cc1` (configuration not stated) here?
The inhibition was inactive: -2%.

Which inhibition does the source give for `CP(=O)(Nc1ccccn1)Oc1ccc(Cl)cc1` (configuration not stated) here?
Its inhibition is inactive: -0.6%.

For `Cc1cccc(C)c1OP(C)(=O)Nc1ccc(SC(F)(F)F)cc1` (configuration not stated), which inhibition is on record?
The inhibition was inactive: -0.9%.

Which inhibition does the source give for `CP(=O)(Nc1ccc(SC(F)(F)F)cc1)Oc1ccc(Cl)cc1` (configuration not stated) here?
Its inhibition is inactive: -3.3%.

Which inhibition does the source give for `CP(=O)(Oc1ccccc1)OC(c1ccccc1)C(F)(F)F` (configuration not stated) here?
Its inhibition is inactive: -3%.

`CCc1ccc(OP(C)(=O)N2CCN(c3ccc([N+](=O)[O-])cc3)CC2)cc1` (configuration not stated) was tested. Which inhibition did it give?
Its inhibition is inactive: -6.1%.

For `CP(=O)(NC(=O)Nc1ccccc1)Oc1ccccc1` (configuration not stated), which inhibition is on record?
Its inhibition is inactive: -2.3%.

For `Cc1cc(C)cc(OP(C)(=O)Nc2ccc(SC(F)(F)F)cc2)c1` (configuration not stated), which inhibition is on record?
Its inhibition is inactive: -4.1%.

`CP(=S)(Nn1cnnc1)Oc1ccccc1` (configuration not stated) was tested. Which inhibition did it give?
Its inhibition is inactive: -0.6%.

For `COc1ccccc1OP(C)(=O)Nc1ccccc1` (configuration not stated), which inhibition is on record?
The inhibition was inactive: 0.2%.

Which inhibition does the source give for `CP(=O)(Nc1ccccc1Br)Oc1ccccc1` (configuration not stated) here?
The inhibition was inactive: 0.3%.

For `CCOC(=O)c1ccc(NP(C)(=O)Oc2ccccc2)cc1` (configuration not stated), which inhibition is on record?
Its inhibition is inactive: 0.3%.

For `COc1ccccc1OP(C)(=O)Nc1ccc(C)cc1` (configuration not stated), which inhibition is on record?
The inhibition was inactive: 1.6%.

`Cc1ccc(NP(C)(=O)Oc2ccccc2)c(C)c1` (configuration not stated) was tested. Which inhibition did it give?
The inhibition was inactive: -1.4%.

Which inhibition does the source give for `COc1ccccc1OP(C)(=O)Nc1cc(Cl)ccc1C` (configuration not stated) here?
The inhibition was inactive: -1.6%.

Which inhibition does the source give for `COc1ccc(OP(C)(=O)Nc2cccc(F)c2)cc1` (configuration not stated) here?
Its inhibition is inactive: 2.1%.

With `Cc1cc(C)cc(OP(C)(N)=O)c1` (configuration not stated) as the molecule, how does the inhibition read?
Its inhibition is inactive: 0.7%.

Which inhibition does the source give for `CC(C)(C)c1ccc(OP(C)(=O)Nc2ccc(SC(F)(F)F)cc2)cc1` (configuration not stated) here?
The inhibition was inactive: -6.7%.

`Cc1cccc(C)c1OP(C)(N)=O` (configuration not stated) was tested. Which inhibition did it give?
Its inhibition is inactive: -0.8%.

How did the inhibition turn out when `O=[N+]([O-])c1ccc2c(c1)C=Nc1ccccc1O2` was run?
The inhibition was inactive: -2.6%.

For `CCN(CC)CCCOC(=O)C(O)(c1ccccc1)c1ccccc1`, which inhibition is on record?
Its inhibition is inactive: 2.6%.

How did the inhibition turn out when `O=[N+]([O-])c1cc([N+](=O)[O-])c(Nc2ccccn2)c([N+](=O)[O-])c1` was run?
Its inhibition is inactive: 0.1%.

With `Cc1c(NP(C)(=O)Oc2ccc(C(C)C)cc2)c(=O)n(-c2ccccc2)n1C` (configuration not stated) as the molecule, how does the inhibition read?
Its inhibition is inactive: -5%.

`CP(=O)(Nc1ccccn1)Oc1ccccc1` (configuration not stated) was tested. Which inhibition did it give?
Its inhibition is inactive: -0.1%.

Which inhibition does the source give for `COc1ccccc1OP(C)(=O)Nc1ccc(C)cc1C` (configuration not stated) here?
Its inhibition is inactive: -0.7%.

`COc1ccccc1OP(C)(=O)Nc1ccc(Br)cc1` (configuration not stated) was tested. Which inhibition did it give?
The inhibition was inactive: -1.4%.

Which inhibition does the source give for `CN(C)CCOC(=O)C(O)(c1ccccc1)C1CCCC1` (configuration not stated) here?
Its inhibition is inactive: 0%.

`COc1ccc(OP(C)(=O)Nc2ccccn2)cc1` (configuration not stated) was tested. Which inhibition did it give?
Its inhibition is inactive: 1.3%.

`Cc1nc2ccc3ccccc3c2o1.O=[N+]([O-])c1cc([N+](=O)[O-])c(O)c([N+](=O)[O-])c1` was tested. Which inhibition did it give?
Its inhibition is inactive: 10.7%.

`CP(=O)(OCCOc1ccccc1)OCCOc1ccccc1` was tested. Which inhibition did it give?
The inhibition was inactive: -1%.

For `CP(=O)(Nc1ccc(Cl)cc1Cl)Oc1ccccc1` (configuration not stated), which inhibition is on record?
The inhibition was inactive: -0.3%.

With `Cc1cc(C)cc(OP(C)(=O)Nc2cccc(C(F)(F)F)c2)c1` (configuration not stated) as the molecule, how does the inhibition read?
Its inhibition is inactive: -7.6%.

For `COc1ccc(OP(C)(=O)Nc2ccccc2Br)cc1` (configuration not stated), which inhibition is on record?
Its inhibition is inactive: -2.7%.

For `COc1ccccc1OP(C)(=O)Nc1ccc(C)c(C)c1` (configuration not stated), which inhibition is on record?
Its inhibition is inactive: 0.1%.

For `CP(=O)(OC12CC3CC(CC(C3)C1)C2)OC12CC3CC(CC(C3)C1)C2`, which inhibition is on record?
Its inhibition is inactive: 9.8%.

`CCOC(=O)c1ccc(NP(C)(=O)Oc2ccc(Cl)cc2)cc1` (configuration not stated) was tested. Which inhibition did it give?
Its inhibition is inactive: -1.7%.

For `CC(C)(C)c1ccc(OP(C)(=O)O)cc1`, which inhibition is on record?
The inhibition was inactive: 0.6%.

For `COc1ccccc1OP(C)(=O)Nc1ccccc1Br` (configuration not stated), which inhibition is on record?
The inhibition was inactive: -1.4%.

With `CN(C)C(=O)c1c([N+](=O)[O-])cc([N+](=O)[O-])cc1[N+](=O)[O-]` as the molecule, how does the inhibition read?
Its inhibition is inactive: 1%.

Which inhibition does the source give for `CCN(CC)CC(O)COC(=O)C(O)(c1ccccc1)C1CCCCC1` (configuration not stated) here?
The inhibition was inactive: 0.8%.

How did the inhibition turn out when `COc1ccc(OP(C)(=O)Nc2ccc(Br)cc2)cc1` (configuration not stated) was run?
The inhibition was inactive: -2.5%.

Which inhibition does the source give for `CP(=O)(Oc1ccccc1)N1CCOC1=O` (configuration not stated) here?
Its inhibition is inactive: 0.2%.

For `CCc1ccc(OP(C)(=O)Nc2cccnc2)cc1` (configuration not stated), which inhibition is on record?
The inhibition was inactive: -0.5%.

`COc1ccccc1OP(C)(=O)Nc1c(C)n(C)n(-c2ccccc2)c1=O` (configuration not stated) was tested. Which inhibition did it give?
The inhibition was inactive: -0.7%.

How did the inhibition turn out when `O=C(OCCCN1CCCC1)C(O)(c1ccccc1)C1CCCCC1` (configuration not stated) was run?
The inhibition was inactive: -1.1%.

`CP(=O)(Nc1ccc2c(c1)OCCO2)Oc1ccccc1` (configuration not stated) was tested. Which inhibition did it give?
The inhibition was inactive: -0.5%.

With `Cc1ccccc1NP(C)(=O)Nc1ccccc1C` as the molecule, how does the inhibition read?
The inhibition was inactive: -0.9%.

`CP(=O)(Nc1ccc(SC(F)(F)F)cc1)Oc1ccc(F)cc1` (configuration not stated) was tested. Which inhibition did it give?
The inhibition was inactive: -0.5%.

`CCOP(C)(=S)SCC(=O)NC(C)(CC)C(=O)O` (configuration not stated) was tested. Which inhibition did it give?
Its inhibition is inactive: 1.2%.

`Cc1cc(-c2cccc3ccccc23)c(C)cn1.O=[N+]([O-])c1cc([N+](=O)[O-])c(O)c([N+](=O)[O-])c1` was tested. Which inhibition did it give?
Its inhibition is inactive: -1.3%.

How did the inhibition turn out when `O=[N+]([O-])c1cc([N+](=O)[O-])c(NCC2CCS(=O)(=O)C2)c([N+](=O)[O-])c1` (configuration not stated) was run?
Its inhibition is inactive: 5.6%.

How did the inhibition turn out when `O=[N+]([O-])c1ccc(OP2(=O)COCCO2)cc1` (configuration not stated) was run?
The inhibition was inactive: -2.2%.

`COc1ccc(OP(C)(=O)Nc2cccc(Br)c2)cc1` (configuration not stated) was tested. Which inhibition did it give?
Its inhibition is inactive: -1.4%.

For `COc1ccc(NP(C)(=O)Oc2ccccc2OC)cc1` (configuration not stated), which inhibition is on record?
Its inhibition is inactive: -1.3%.

With `CN(C)CCOC(=O)C(O)(c1ccccc1)C1CCCCC1` (configuration not stated) as the molecule, how does the inhibition read?
Its inhibition is inactive: -2.1%.

How did the inhibition turn out when `CCN(CC)CCCOC(=O)C(O)(c1ccccc1)C1CCCCC1` (configuration not stated) was run?
Its inhibition is inactive: -0.9%.

For `CCCCCOc1ccc(NP(C)(=O)Oc2ccc(Cl)cc2Cl)cc1` (configuration not stated), which inhibition is on record?
The inhibition was inactive: -5.8%.

For `CP(=O)(Nc1ccccc1)Oc1ccc(F)cc1` (configuration not stated), which inhibition is on record?
Its inhibition is inactive: -3.1%.

With `COc1ccc(OP(C)(=O)Nc2ccc(SC(F)(F)F)cc2)cc1` (configuration not stated) as the molecule, how does the inhibition read?
The inhibition was inactive: -9.7%.

Which inhibition does the source give for `CCOC(=O)c1ccc(NP(C)(=O)Oc2ccc(F)cc2)cc1` (configuration not stated) here?
The inhibition was inactive: -4.3%.

`O=C(OCCN1CCN(CCOCc2ccccc2)CC1)C(O)(c1ccccc1)c1ccccc1` was tested. Which inhibition did it give?
Its inhibition is inactive: -2.4%.

Which inhibition does the source give for `O=C(OC1CN2CCC1CC2)c1ccc([N+](=O)[O-])cc1` (configuration not stated) here?
Its inhibition is inactive: 1.7%.

With `COc1ccc2c(c1O)-c1c(O)c(OC)cc3c1[C@H](C2)[N+](C)(C)CC3.O=[N+]([O-])c1cc([N+](=O)[O-])c([O-])c([N+](=O)[O-])c1[O-]` as the molecule, how does the inhibition read?
The inhibition was inactive: 5.7%.

For `CC(C)c1ccc(OP(C)(=O)Nc2ccc(SC(F)(F)F)cc2)cc1` (configuration not stated), which inhibition is on record?
Its inhibition is inactive: -6.3%.

With `CP(=O)(Nc1ccccc1F)Oc1ccccc1` (configuration not stated) as the molecule, how does the inhibition read?
The inhibition was inactive: -4.3%.
